Measurements published in patent publication US8580752B2, “Aromatic amides as potentiators of bioefficacy of anti-infective drugs” (priority 2005, dated 2013).

Legend:
S aureus ATCC 29213 = experiment: MIC by checkerboard method; format: cell-based, Staphylococcus aureus
MRSA 33 = experiment: MIC by checkerboard method; format: cell-based, Staphylococcus aureus; settings: S aureus MRSA 33
MRSA 450 = experiment: MIC by checkerboard method; format: cell-based, Staphylococcus aureus; settings: S aureus MRSA 450
S epidermidis ATCC 12228 = experiment: MIC by checkerboard method; format: cell-based
B cereus RRL 101 = experiment: MIC by checkerboard method; format: cell-based
[1] = system: M. tuberculosis, M. avium and M. intracellure; experiment: Decrease in MIC of rifampicin in combination; format: cell-based; settings: Mycobacterial species (Table 3)
[2] = system: Staphylococcus aureus ATCC 29213; experiment: Systemic infection model of mice; format: in vivo, Swiss albino mice; settings: mice infected i.v. with S. aureus ATCC 29213, two doses 6 hrs apart, seven days of observation
[3] = system: bacteria, viruses and yeast; experiment: In vitro screening in combination with anti-infective agents; format: cell-based
[4] = Subacute toxicity study, 28 days; settings: 20, 40 and 100 mg/kg for 28 days
[5] = system: Staphylococcus aureus, MRSA; experiment: Decrease in MIC in combination
[6] = Safety pharmacology studies (CNS, CVS and GIT profile); settings: in vivo
[7] = with compound of formula 1a 6.25 μg/ml
[8] = with compound of formula 1a 12.5 μg/ml
[9] = with compound of formula 1a 25.0 μg/ml
[10] = with compound of formula 1a 50.0 μg/ml

For CCC(/C=C/C(=O)N1CCCCC1)=C\c1ccc2c(c1)OCO2 [compound of formula 1a, 4-ethyl-5-(3,4-methylenedioxyphenyl)-2E,4E-pentadienoic acid piperidine amide], the “MIC of Amikacin” value (S aureus ATCC 29213; [7]) was 1.0 µg/mL, the “MIC of Amikacin” value (S aureus ATCC 29213; [8]) was 1.0 µg/mL and the “MIC of Amikacin” value (S aureus ATCC 29213; [9]) was 0.5 µg/mL. The “MIC of Amikacin” value (S aureus ATCC 29213; [10]) was 0.25 µg/mL, the “MIC of Amikacin” value (MRSA 33; [7]) was 8.0 µg/mL and the “MIC of Amikacin” value (MRSA 33; [8]) was 8.0 µg/mL. For the same molecule, the “MIC of Amikacin” value (MRSA 33; [9]) was 4.0 µg/mL, the “MIC of Amikacin” value (MRSA 33; [10]) was 2.0 µg/mL and the “MIC of Amikacin” value (MRSA 450; [7]) was 8.0 µg/mL. For the same molecule, the “MIC of Amikacin” value (MRSA 450; [8]) was 8.0 µg/mL, the “MIC of Amikacin” value (MRSA 450; [9]) was 4.0 µg/mL and the “MIC of Amikacin” value (MRSA 450; [10]) was 4.0 µg/mL. The “MIC of Amikacin” value (S epidermidis ATCC 12228; [7]) was 0.5 µg/mL, the “MIC of Amikacin” value (S epidermidis ATCC 12228; [8]) was 0.5 µg/mL and the “MIC of Amikacin” value (S epidermidis ATCC 12228; [9]) was 0.25 µg/mL. The “MIC of Amikacin” value (S epidermidis ATCC 12228; [10]) was 0.25 µg/mL, the “MIC of Amikacin” value (B cereus RRL 101; [7]) was 1.0 µg/mL and the “MIC of Amikacin” value (B cereus RRL 101; [8]) was 0.25 µg/mL. The “MIC of Amikacin” value (B cereus RRL 101; [9]) was 0.25 µg/mL, the “MIC of Amikacin” value (B cereus RRL 101; [10]) was 0.25 µg/mL and the “reduction in MIC of rifampicin in combination with the potentiator” value [1] was “Two-fold”. The “ED50 for ciprofloxacin in combination with the potentiator” value [2] was 5.86 mg/kg, the “potentiation/synergism when combined with various anti-infective agents in vitro” value [3] was “potentiation/synergism” and the “subacute toxicity: food/water consumption, body weight, organ weight, haematological and clinical chemistry profile” value [4] was “No adverse effects were observed”. For the same molecule, the “reduction in MIC of Amikacin in combination with the potentiator” value ([5]; Staphylococcus aureus species (Table 1)) was “Four-fold”, the “reductions in MIC of mupirocin in combination with the potentiator” value ([5]; bacterial species (Table-4)) was “Two to more than four fold” and the “safety pharmacology (CNS, CVS and GIT profile)” value [6] was “did not reveal any abnormality”.
